Cyclic peptide permeability, from CycPeptMPDB

Source: CycPeptMPDB (Li et al. 2023), which took these values from Townsend et al. 2020, doi:10.26434/chemrxiv.13335941.v1.

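Conditions beyond the assay type are not listed; see the original paper. The list need not hold all peptides of the study. Entries at the database's floor value (log10 P of -10) are not listed.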

PAMPA measures passive passage through an artificial lipid membrane.
Permeability is given as log10 of P in cm/s; higher (less negative) is more permeable.

compound,PAMPA (log10 cm/s)
CC(C)C[C@@H]1NC(=O)[C@H](C)NC(=O)[C@H](Cc2ccccc2)NC(=O)[C@H](CC(C)C)NC(=O)[C@H]2CCCN2C(=O)[C@H](CC(C)C)NC1=O,-6.58
CCCN1CC(=O)N(C)[C@H](CC(C)C)C(=O)N[C@H](CC(C)C)C(=O)N2CCC[C@H]2C(=O)N[C@H](CC(C)C)C(=O)N[C@@H](Cc2ccccc2)C(=O)N2CCC[C@@H]2C1=O,-6.41
CC(C)C[C@H]1C(=O)N[C@@H](Cc2ccccc2)C(=O)N[C@H](C)C(=O)N(C)[C@@H](CC(C)C)C(=O)N[C@@H](Cc2ccccc2)CC(=O)N2CCC[C@@H]2C(=O)N1C,-5.29
CC(C)C[C@@H]1NC(=O)[C@@H](CC(C)C)NC(=O)[C@H](C)NC(=O)[C@H]2CCCN2C(=O)[C@H](Cc2ccccc2)NC(=O)[C@@H](CC(C)C)NC(=O)[C@H]2CCCN2C1=O,-6.37
CCCN1CC(=O)N(C)[C@H](CC(C)C)C(=O)N(C)[C@H](CC(C)C)C(=O)N2CCC[C@@H]2C(=O)N[C@H](CC(C)C)C(=O)N[C@@H](Cc2ccccc2)C(=O)N2CCC[C@@H]2C1=O,-4.89
CC(C)C[C@H]1NC(=O)[C@H](C)N(C)C(=O)[C@H](Cc2ccccc2)NC(=O)[C@@H](CC(C)C)NC(=O)[C@@H]2CCCN2C(=O)[C@@H](CC(C)C)NC1=O,-5.29
CC(C)C[C@@H]1C(=O)N[C@H](CC(C)C)C(=O)N2CCC[C@@H]2C(=O)N[C@H](CC(C)C)C(=O)N[C@@H](Cc2ccccc2)C(=O)N[C@H](C)C(=O)N1C,-6.20
CC(C)C[C@@H]1NC(=O)[C@H](CC(C)C)N(C)C(=O)C[C@H](Cc2ccccc2)NC(=O)[C@H]2CCCN2C(=O)[C@H](Cc2ccccc2)NC(=O)[C@@H](CC(C)C)N(C)C(=O)[C@H]2CCCN2C1=O,-5.60
CC(C)C[C@@H]1NC(=O)[C@@H](CC(C)C)NC(=O)[C@@H](C)NC(=O)[C@@H]2CCCN2C(=O)[C@H](Cc2ccccc2)NC(=O)[C@@H](CC(C)C)NC(=O)[C@@H]2CCCN2C1=O,-6.69
CCCN1CC(=O)N(C)[C@H](CC(C)C)C(=O)N(C)[C@@H](CC(C)C)C(=O)N2CCC[C@H]2C(=O)N(C)[C@@H](CC(C)C)C(=O)N[C@@H](Cc2ccccc2)C(=O)N2CCC[C@H]2C1=O,-5.08
CC(C)C[C@@H]1NC(=O)[C@H](CC(C)C)N(C)C(=O)[C@@H](C)NC(=O)[C@H](Cc2ccccc2)NC(=O)[C@@H](CC(C)C)N(C)C(=O)[C@H]2CCCN2C1=O,-4.88
CCCN1CC(=O)N(C)[C@H](CC(C)C)C(=O)N[C@H](CC(C)C)C(=O)N2CCC[C@@H]2C(=O)N(Cc2ccccc2)CC(=O)N[C@@H](Cc2ccccc2)C(=O)N2CCC[C@@H]2C1=O,-5.39

The 2 highest values of PAMPA among the entries above:

compound	PAMPA (log10 cm/s)
CC(C)C[C@@H]1NC(=O)[C@H](CC(C)C)N(C)C(=O)[C@@H](C)NC(=O)[C@H](Cc2ccccc2)NC(=O)[C@@H](CC(C)C)N(C)C(=O)[C@H]2CCCN2C1=O	-4.88
CCCN1CC(=O)N(C)[C@H](CC(C)C)C(=O)N(C)[C@H](CC(C)C)C(=O)N2CCC[C@@H]2C(=O)N[C@H](CC(C)C)C(=O)N[C@@H](Cc2ccccc2)C(=O)N2CCC[C@@H]2C1=O	-4.89